# Assay results reported in US9522194B2, “Methods of using monomethylvaline compositions having phenylalanine carboxy modifications at the C-terminus” (priority 2005, dated 2016).
# How the values were obtained:
# Experiment in all cases: In vitro cytotoxicity of free drugs (resazurin, 96 h)
# [1] = tested on: anaplastic large cell lymphoma cell line Karpas 299; assay type: cell-based, human; settings: read-out: IC50s (nM) Karpas 299, free drug
# [2] = tested on: Hodgkin's disease cell line L540cy; assay type: cell-based; settings: read-out: IC50s (nM) L540cy, free drug
# [3] = tested on: Hodgkin's disease cell line L428; assay type: cell-based; settings: read-out: IC50s (nM) L428, free drug
# [4] = tested on: renal cell carcinoma cell line Caki-1; assay type: cell-based; settings: read-out: IC50s (nM) Caki-1, free drug
# [5] = tested on: renal cell carcinoma cell line 786-O; assay type: cell-based; settings: read-out: IC50s (nM) 786-O, free drug
# [6] = tested on: colon carcinoma cell line HCT-116; assay type: cell-based; settings: read-out: IC50s (nM) HCT-116, free drug
Substance,IC50 [1] [nM],IC50 [2] [nM],IC50 [3] [nM],IC50 [4] [nM],IC50 [5] [nM],IC50 [6] [nM]
NMeValValDilDapphosphonoPhe [MMApF-A],790,363,237,,,
CbzNMeValValDilDapphosphonoPhe diethylester,0.2,0.25,1.26,0.009,1.1,0.085
NMeValValDilDapphosphonoPhe [MMApF-B],470,363,935,,,
